Where two headings read alike, the source gives them in different places.
Assays:
Assay in all cases: biochemical
Type in all cases: binding
HLA-B*4001 = HLA-B*4001 (Homo sapiens, UniProt P01889, A65T/A93T/A95T/D138N/D98Y/E176V/E69K/N87E/Q56L/Q94N/R180L/S121R/S35A/S48T/T167S/V36M/W171L/Y33H/Y91S)
HLA-B*4002 = HLA-B*4002 (Homo sapiens, UniProt P01889, A65T/A93T/A95T/D138N/D201E/D98Y/E176V/E204Q/E69K/K202T/N87E/Q56L/Q94N/R180L/S48T/Y33H/Y91S); details: B*4002
HLA-B*4501 = HLA-B*4501 (Homo sapiens, UniProt P01889, A329T/A65T/A93T/A95T/C349S/D138N/D201E/D98Y/E176V/E187L/E204Q/E69K/H137Y/K202T/L119W/N87E/Q56L/Q94N/R155S/R180D/S121R/S35A/S48T/V127L/V306I/V36M/W191S/Y140L/Y33H/Y91S)
HLA-B*1801 = HLA-B*1801 (Homo sapiens, UniProt P01889, A329T/A93T/A95T/C349S/D201E/D54G/D98Y/E176V/E187T/E204Q/E69T/K202T/Q94N/R155S/R180L/S121R/V306I/Y140S/Y195H/Y33H/Y91S); details: B*1801
HLA-B*4402 = HLA-B*4402 (Homo sapiens, UniProt P01889, A223V/A65T/A93T/A95T/D201E/D98Y/E176V/E187L/E204Q/E69K/G107R/H137Y/K202T/L105A/L119I/N104T/N87E/Q56L/Q94N/R106L/R155S/R180D/S101N/S121R/S35A/S48T/T118I/V36M/W191S/Y140D/Y91S)

CC[C@H](C)[C@H](NC(=O)[C@H](CCC(=O)O)NC(=O)[C@@H]1CCCN1C(=O)[C@H](CCC(=O)O)NC(=O)[C@@H](N)CS)C(=O)N[C@@H](CCC(N)=O)C(=O)N[C@@H](CC(N)=O)C(=O)N[C@H](C(=O)N[C@H](C(=O)N[C@@H](Cc1ccc(O)cc1)C(=O)O)[C@@H](C)O)[C@@H](C)O
IC50 (HLA-B*4001; B*4001): > 10.3 µM
IC50 (HLA-B*4002): 35.7 µM
IC50 (HLA-B*4501; B*4501): 43.7 µM

C[C@H](NC(=O)[C@H](Cc1c[nH]cn1)NC(=O)[C@H](Cc1ccc(O)cc1)NC(=O)[C@H](CCC(=O)O)NC(=O)[C@@H](NC(=O)[C@H](CCC(=O)O)NC(=O)[C@@H](N)CC(=O)O)[C@@H](C)O)C(=O)N[C@@H](CC(=O)O)C(=O)NCC(=O)NCC(=O)O
IC50 (HLA-B*4001; B*4001): 45.3 µM
IC50 (HLA-B*4501; B*4501): 29 µM

CC[C@H](C)[C@H](NC(=O)[C@H](CO)NC(=O)[C@H](CC(=O)O)NC(=O)[C@H](CCC(=O)O)NC(=O)[C@H](CCCNC(=N)N)NC(=O)CNC(=O)[C@H](CCC(=O)O)NC(=O)[C@@H](N)Cc1ccccc1)C(=O)N[C@@H](CC(C)C)C(=O)O
IC50 (HLA-B*4001; B*4001): 0.051 µM
IC50 (HLA-B*4501; B*4501): > 27.1 µM

CC[C@H](C)[C@H](NC(=O)[C@H](CO)NC(=O)[C@H](CC(=O)O)NC(=O)[C@H](CCC(=O)O)NC(=O)[C@H](CCCNC(=N)N)NC(=O)CNC(=O)[C@H](CCC(=O)O)NC(=O)[C@@H](N)Cc1ccccc1)C(=O)N[C@@H](CC(C)C)C(=O)NCC(=O)O
IC50 (HLA-B*4001; B*4001): 0.94 µM
IC50 (HLA-B*4501; B*4501): 20.3 µM

CC[C@H](C)[C@H](NC(=O)[C@H](CCC(=O)O)NC(=O)[C@H](CCC(=O)O)NC(=O)[C@H](CC(C)C)NC(=O)[C@@H](NC(=O)[C@H](CCC(=O)O)NC(=O)[C@@H](N)Cc1ccccc1)[C@@H](C)O)C(=O)N[C@H](C(=O)NCC(=O)N[C@@H](Cc1ccc(O)cc1)C(=O)O)[C@@H](C)O
IC50 (HLA-B*4001; B*4001): 53.4 µM
IC50 (HLA-B*4002): 36.3 µM
IC50 (HLA-B*4501; B*4501): > 28.5 µM

CC(C)[C@H](NC(=O)[C@H](CO)NC(=O)CNC(=O)[C@H](Cc1ccc(O)cc1)NC(=O)CNC(=O)CNC(=O)[C@H](Cc1ccccc1)NC(=O)[C@H](CCC(=O)O)NC(=O)CN)C(=O)O
IC50 (HLA-B*1801): 0.307 µM

CC[C@H](C)[C@H](NC(=O)[C@H](Cc1c[nH]cn1)NC(=O)[C@@H]1CCCN1C(=O)[C@H](CCC(=O)O)NC(=O)CN)C(=O)N[C@@H](CO)C(=O)N[C@@H](Cc1ccc(O)cc1)C(=O)N1CCC[C@H]1C(=O)N1CCC[C@H]1C(=O)N[C@@H](CC(C)C)C(=O)O
IC50 (HLA-B*1801): 2.61 µM

CC(C)C[C@H](NC(=O)[C@H](CO)NC(=O)[C@H](CCC(N)=O)NC(=O)[C@H](CS)NC(=O)[C@H](CC(=O)O)NC(=O)[C@H](CCC(=O)O)NC(=O)[C@H](CO)NC(=O)[C@H](CO)NC(=O)[C@H](CCC(=O)O)NC(=O)CN)C(=O)O
IC50 (HLA-B*1801): 139 µM

CC(C)C[C@H](NC(=O)[C@H](CC(C)C)NC(=O)[C@H](CC(N)=O)NC(=O)CNC(=O)[C@H](CO)NC(=O)[C@H](CO)NC(=O)[C@H](CC(=O)O)NC(=O)[C@H](CCC(=O)O)NC(=O)[C@@H](N)CC(C)C)C(=O)O
IC50 (HLA-B*4402; B*4402): 4.66 µM
IC50 (HLA-B*4501; B*4501): 26.1 µM

CC[C@H](C)[C@H](NC(=O)[C@H](CCC(=O)O)NC(=O)[C@H](CCC(=O)O)NC(=O)[C@@H](N)CC(C)C)C(=O)N[C@H](C(=O)NCC(=O)N[C@@H](Cc1ccc(O)cc1)C(=O)N[C@@H](CC(C)C)C(=O)O)[C@@H](C)O
IC50 (HLA-B*4402; B*4402): 5.91 µM
IC50 (HLA-B*4501; B*4501): 35.5 µM

CC[C@H](C)[C@H](NC(=O)[C@H](CO)NC(=O)[C@H](CC(=O)O)NC(=O)[C@H](CCC(=O)O)NC(=O)[C@H](CCCNC(=N)N)NC(=O)CNC(=O)[C@H](CCC(=O)O)NC(=O)[C@H](Cc1ccccc1)NC(=O)[C@@H](NC(=O)[C@H](CCC(=O)O)NC(=O)[C@@H](N)CC(C)C)C(C)C)C(=O)O
IC50 (HLA-B*4402; B*4402): 21 µM
IC50 (HLA-B*4501; B*4501): > 31 µM

CC(C)[C@H](NC(=O)[C@H](CO)NC(=O)CNC(=O)[C@H](CC(N)=O)NC(=O)[C@H](CCC(N)=O)NC(=O)[C@@H]1CCCN1C(=O)[C@H](CCC(N)=O)NC(=O)[C@H](CS)NC(=O)[C@H](CCC(=O)O)NC(=O)[C@@H]1CCCN1)C(=O)O
IC50 (HLA-B*4001; B*4001): 36 µM
IC50 (HLA-B*4002): 20.4 µM
IC50 (HLA-B*4501; B*4501): > 28.5 µM

CSCC[C@H](NC(=O)[C@H](CC(=O)O)NC(=O)[C@H](CC(C)C)NC(=O)[C@H](Cc1c[nH]cn1)NC(=O)[C@@H](NC(=O)[C@H](CCC(=O)O)NC(=O)[C@@H]1CCCN1)[C@@H](C)O)C(=O)N[C@@H](CC(C)C)C(=O)O
IC50 (HLA-B*4402; B*4402): > 17.5 µM
IC50 (HLA-B*4501; B*4501): 20.3 µM

CC[C@H](C)[C@H](NC(=O)CNC(=O)[C@H](Cc1ccccc1)NC(=O)[C@@H](NC(=O)[C@H](CC(C)C)NC(=O)[C@H](CCC(N)=O)NC(=O)[C@H](CC(C)C)NC(=O)[C@H](Cc1ccc(O)cc1)NC(=O)[C@H](CCC(=O)O)NC(=O)[C@@H](N)CO)C(C)C)C(=O)O
IC50 (HLA-B*1801): 0.0022 µM

CC(C)[C@H](N)C(=O)N[C@@H](CCC(=O)O)C(=O)N[C@@H](CC(=O)O)C(=O)N[C@@H](CCCCN)C(=O)N[C@@H](CC(=O)O)C(=O)N[C@@H](C)C(=O)N[C@H](C(=O)N[C@@H](C)C(=O)N[C@@H](Cc1ccccc1)C(=O)O)C(C)C
IC50 (HLA-B*4402; B*4402): 1.66 µM
IC50 (HLA-B*4501; B*4501): 21.2 µM

CC(C)C[C@H](NC(=O)[C@@H](NC(=O)[C@H](CCCNC(=N)N)NC(=O)[C@H](CS)NC(=O)[C@H](CCC(=O)O)NC(=O)[C@H](CCC(=O)O)NC(=O)[C@@H](N)C(C)C)C(C)C)C(=O)N[C@@H](CCC(N)=O)C(=O)NCC(=O)O
IC50 (HLA-B*4402; B*4402): 14.2 µM
IC50 (HLA-B*4501; B*4501): 20.1 µM

CC(C)C[C@H](NC(=O)[C@H](CC(N)=O)NC(=O)CNC(=O)[C@H](CCC(=O)O)NC(=O)[C@@H](N)C(C)C)C(=O)N[C@@H](CCCNC(=N)N)C(=O)N[C@H](C(=O)N[C@@H](CCC(=O)O)C(=O)N[C@@H](Cc1ccc(O)cc1)C(=O)O)C(C)C
IC50 (HLA-B*4002): 67.7 µM
IC50 (HLA-B*4501; B*4501): 39.1 µM

CC(C)C[C@H](NC(=O)[C@@H]1CCCN1C(=O)[C@@H]1CCCN1C(=O)[C@H](CCC(=O)O)NC(=O)[C@@H](N)C(C)C)C(=O)N[C@@H](CO)C(=O)N[C@@H](CCC(N)=O)C(=O)N[C@@H](CCC(=O)O)C(=O)N[C@H](C(=O)O)[C@@H](C)O
IC50 (HLA-B*4002): 20.5 µM
IC50 (HLA-B*4501; B*4501): 29.3 µM

CSCC[C@H](NC(=O)[C@H](CO)NC(=O)[C@H](CC(C)C)NC(=O)[C@H](CCC(=O)O)NC(=O)[C@H](CCC(=O)O)NC(=O)[C@@H](N)Cc1c[nH]c2ccccc12)C(=O)N[C@@H](CC(C)C)C(=O)N[C@@H](CCC(=O)O)C(=O)N[C@H](C(=O)N[C@@H](Cc1ccccc1)C(=O)O)C(C)C
IC50 (HLA-B*1801): 0.00014 µM

CC[C@H](C)[C@H](NC(=O)[C@H](Cc1c[nH]cn1)NC(=O)[C@@H]1CCCN1C(=O)[C@H](CCC(=O)O)NC(=O)CN)C(=O)N[C@@H](CO)C(=O)N[C@@H](Cc1ccc(O)cc1)C(=O)O [GEPHISY]
IC50 (HLA-B*4402; B*4402): 36.1 µM
IC50 (HLA-B*4501; B*4501): > 33.3 µM

CC(C)C[C@H](NC(=O)[C@H](C)NC(=O)[C@H](CCC(=O)O)NC(=O)CNC(=O)[C@H](CCCNC(=N)N)NC(=O)[C@H](C)NC(=O)[C@H](CCC(=O)O)NC(=O)[C@@H](N)CC(C)C)C(=O)O [LEARGEAL]
IC50 (HLA-B*4002): 0.065 µM
IC50 (HLA-B*4402; B*4402): 29.5 µM
IC50 (HLA-B*4501; B*4501): 31.5 µM

CC(C)[C@H](NC(=O)[C@H](C)NC(=O)[C@H](CCCNC(=N)N)NC(=O)[C@@H](NC(=O)[C@H](CCC(=O)O)NC(=O)[C@@H](N)CCCNC(=N)N)C(C)C)C(=O)N[C@H](C(=O)O)[C@@H](C)O [REVRAVT]
IC50 (HLA-B*4402; B*4402): 31.6 µM
IC50 (HLA-B*4501; B*4501): 23.5 µM

CC(C)C[C@H](NC(=O)[C@H](C)NC(=O)[C@@H](NC(=O)[C@H](C)NC(=O)[C@H](CC(=O)O)NC(=O)[C@H](CCC(=O)O)NC(=O)[C@H](CC(=O)O)NC(=O)[C@H](CCC(=O)O)NC(=O)[C@@H](N)C(C)C)C(C)C)C(=O)O [VEDEDAVAL]
IC50 (HLA-B*4402; B*4402): 30.7 µM
IC50 (HLA-B*4501; B*4501): 27.8 µM

CELHCPAL
IC50 (HLA-B*4501; read-out: B*4501): 30.1 µM

GELHCPALVT
IC50 (HLA-B*4001; read-out: B*4001): > 9.25 µM
IC50 (HLA-B*4501; read-out: B*4501): 0.477 µM

RERFEME
IC50 (HLA-B*4402; read-out: B*4402): 25.5 µM
IC50 (HLA-B*4501; read-out: B*4501): 20 µM

Source: patent US20060079453A1, “Hla binding peptides and their uses” (priority 2002, published 2006)
